In patent US20260382562A1, “ALLOSTERIC CHROMENONE INHIBITORS OF PHOSPHOINOSITIDE 3-KINASE (PI3K) FOR THE TREATMENT OF DISEASE” (published 2026):

Experiments:
[1] = test system: CAL-148, PI3Ka H1047R & D350N+/−, triple negative breast cancer xenograft; experiment: In Vivo Combination Study in CAL148 TNBC tumor model in mice (Example 16); settings: 14 days
[2] = test system: HR+/HER2− PIK3CA-mutant advanced or metastatic breast cancer patients; settings: cited from earlier work
[3] = test system: wild-type (WT) and mutated PI3Kα; settings: WT vs mutated PI3Kα; cited from earlier work
[4] = test system: T-47D ER-positive, PI3Ka H1047R−/+ breast cancer xenograft; experiment: In Vivo Combination Study in ER-Positive T-47D breast cancer xenograft in mice, everolimus/fulvestrant (Example 17); settings: 28 days, as estimated in the model of each combination, Compound A 37.5 mg/kg BID p.o., everolimus 5 mg/kg QD p.o., fulvestrant 5 mg/animal Q7D i.v.
[5] = physical stability of Tromethamine Salt Form D (VT-XRPD); settings: RT
[6] = particle size analysis (D90 Measurements); settings: pin milled
T47D Parental cells = experiment: In Vitro Cell Proliferation Assay, T47D Parental; settings: read-out: absolute IC50 (cell proliferation), FBS adjusted, n = 4, 2 cell doubling times
[7] = test system: T47D abemaciclib/fulvestrant resistant cells; experiment: In Vitro Cell Proliferation Assay, T47D abemaciclib/fulvestrant resistant; settings: read-out: absolute IC50 (cell proliferation), FBS adjusted, n = 4, 2 cell doubling times
T47D ESR1 D538+/+ cells = experiment: In Vitro Cell Proliferation Assay, T47D ESR1 D538+/+; settings: read-out: absolute IC50 (cell proliferation), FBS adjusted, n = 4, 2 cell doubling times
T47D ESR1 E538+/− cells = experiment: In Vitro Cell Proliferation Assay, T47D ESR1 E538+/−; settings: read-out: absolute IC50 (cell proliferation), FBS adjusted, n = 4, 2 cell doubling times
[8] = test system: T47D abemaciclib resistant cells; experiment: In Vitro Cell Proliferation Assay, T47D abemaciclib resistant; settings: read-out: absolute IC50 (cell proliferation), FBS adjusted, n = 4, 2 cell doubling times
[9] = test system: CTG-1260 PIK3CA H1047R/D350G+/− ESR1 D538G+/− breast cancer PDX; experiment: In Vivo Tumor Growth Inhibition Study in ER+HER2 ESR1 D538G+/− breast cancer PDX (CTG-1260) in mice (Example 15); settings: 56 days, as estimated in the model of each combination; for Mean Tumor Volume (single agent): Compound A 75 mg/kg BID p.o., abemaciclib 50 mg/kg QD p.o., imlunestrant 5 mg/kg QD p.o., fulvestrant 5 mg/animal Q7D i.v.; for Percent Response (D[T/C] % or Reg %), single agent: Compound A 75 mg/kg BID, abemaciclib 50 mg/kg QD, imlunestrant 5 mg/kg QD, fulvestrant 5 mg/animal Q7D, negative = regression
[10] = test system: T-47D ER-positive, PI3Ka H1047R−/+ breast cancer xenograft; experiment: In Vivo Combination Study in ER-Positive T-47D breast cancer xenograft in mice (Example 14); settings: 28 days, as estimated in the model of each combination; for Mean Tumor Volume (single agent): Compound A 37.5 mg/kg BID p.o., abemaciclib 50 mg/kg QD p.o., imlunestrant 5 mg/kg QD p.o., fulvestrant 5 mg/animal Q7D i.v.; for Percent Response (D[T/C] % or Reg %), single agent: Compound A 37.5 mg/kg BID, abemaciclib 50 mg/kg QD, imlunestrant 5 mg/kg QD, fulvestrant 5 mg/animal Q7D, negative = regression
[11] = test system: patients with heavily pretreated, ER+HER2− advanced breast cancer; settings: Phase 1, monotherapy; cited from earlier work

SMILES | Mean Tumor Volume (single agent) [4] [mm^3] | IC50 (T47D Parental cells) [nM] | IC50 [7] [nM] | IC50 (T47D ESR1 D538+/+ cells) [nM] | IC50 (T47D ESR1 E538+/− cells) [nM] | IC50 [8] [nM] | Mean Tumor Volume (single agent) [9] [mm^3] | Percent Response (D[T/C] % or Reg %), single agent [9] | Mean Tumor Volume (single agent) [10] [mm^3] | Percent Response (D[T/C] % or Reg %), single agent [10] | other results
CC(=O)O[C@H]1C(=O)[C@@]2(C)[C@H]([C@H](OC(=O)c3ccccc3)[C@]3(O)C[C@H](OC(=O)[C@H](O)[C@@H](NC(=O)c4ccccc4)c4ccccc4)C(C)=C1C3(C)C)[C@]1(OC(C)=O)CO[C@@H]1C[C@@H]2O | – | – | – | – | – | – | – | – | – | – | Mean Tumor Volume (single agent) ([1]; paclitaxel 10 mg/kg QW i.v.): 1847.9 mm^3; Percent Response (D[T/C] % or Reg %), single agent ([1]; paclitaxel 10 mg/kg QW i.v.): 67.6%; Mean Tumor Volume (single agent) ([1]; paclitaxel 15 mg/kg QW i.v.): 1187.8 mm^3; Mean Tumor Volume (single agent) ([1]; paclitaxel 20 mg/kg QW i.v.): 1119.0 mm^3
Cc1nc(NC(=O)N2CCC[C@H]2C(N)=O)sc1-c1ccnc(C(C)(C)C(F)(F)F)c1 | – | – | – | – | – | – | – | – | – | – | most frequent AEs leading to discontinuation ([2]; SOLAR-1): hyperglycemia and rash; participants who discontinued due to AEs ([2]; SOLAR-1): 25.0%; relative potency on WT and mutated PI3Kα (in words) [3]: approximately equal potency
CO[C@H]1C[C@@H]2CC[C@@H](C)[C@@](O)(O2)C(=O)C(=O)N2CCCC[C@H]2C(=O)O[C@H]([C@H](C)C[C@@H]2CC[C@@H](OCCO)[C@H](OC)C2)CC(=O)[C@H](C)/C=C(\C)[C@@H](O)[C@@H](OC)C(=O)[C@H](C)C[C@H](C)/C=C/C=C/C=C/1C | 408.0 | – | – | – | – | – | – | – | – | – | –
Cc1cc([C@@H](C)Nc2ccccc2C(=O)O)c2oc(-c3ccccc3)c(C)c(=O)c2c1 | – | – | – | – | – | – | – | – | – | – | physical stability (conversion to Form A) [5]: conversion to Form A occurs within minutes at RT; D90 Measure ([6]; Material Lot A): 18 micrometers; D90 Measure ([6]; Material Lot B): 19 micrometers; D90 Measure ([6]; Material Lot C): 19 micrometers; D90 Measure ([6]; Material Lot D): 22 micrometers
C[C@]12CC[C@@H]3c4ccc(O)cc4C[C@@H](CCCCCCCCC[S+]([O-])CCCC(F)(F)C(F)(F)F)[C@H]3[C@@H]1CC[C@@H]2O (stereo partly shown) | 411.8 | 0.02 | 32.1 | 0.08 | 0.03 | 19.4 | 671.0 | 37.8% and 36.1% and 38.4% | 413.3 | 26.6% and 27.9% and 27.1% | progression-free survival ([2]; Phase 3, SOLAR-1): 5.7 months; adverse event: decreased appetite ([2]; participants, SOLAR-1): 10.5%; adverse event: diarrhea ([2]; participants, SOLAR-1): 15.7%; adverse event: hyperglycemia ([2]; participants, SOLAR-1): 9.8%; adverse event: nausea ([2]; participants, SOLAR-1): 22.3%; adverse event: rash ([2]; participants, SOLAR-1): 5.9%
Oc1ccc2c3c(cnc2c1)-c1ccc(C(F)(F)F)cc1O[C@@H]3c1ccc(OCCN2CC(CF)C2)cc1 | – | 0.16 | 31.2 | 0.46 | 0.4 | 31 | 384.8 | 11.8% and 12.9% and 12.6% | 370.9 | 17.2% and 19.5% and 17.7% | anti-tumor activity (in words) [11]: encouraging anti-tumor activity; safety profile (in words) [11]: favorable safety profile

“And” between values parts separate entries of the source, which are not always exact repeats. Identical values can stand only once.
